Assay results from US11814447B2, “Peptide ligands for binding to EphA2” (BICYCLERD LIMITED, priority 2018, dated 2023).

Protein sequences, listed by entry. Tags and fused reporters are not part of them. Residues count along the entry.
UniProt P29317, 24-537: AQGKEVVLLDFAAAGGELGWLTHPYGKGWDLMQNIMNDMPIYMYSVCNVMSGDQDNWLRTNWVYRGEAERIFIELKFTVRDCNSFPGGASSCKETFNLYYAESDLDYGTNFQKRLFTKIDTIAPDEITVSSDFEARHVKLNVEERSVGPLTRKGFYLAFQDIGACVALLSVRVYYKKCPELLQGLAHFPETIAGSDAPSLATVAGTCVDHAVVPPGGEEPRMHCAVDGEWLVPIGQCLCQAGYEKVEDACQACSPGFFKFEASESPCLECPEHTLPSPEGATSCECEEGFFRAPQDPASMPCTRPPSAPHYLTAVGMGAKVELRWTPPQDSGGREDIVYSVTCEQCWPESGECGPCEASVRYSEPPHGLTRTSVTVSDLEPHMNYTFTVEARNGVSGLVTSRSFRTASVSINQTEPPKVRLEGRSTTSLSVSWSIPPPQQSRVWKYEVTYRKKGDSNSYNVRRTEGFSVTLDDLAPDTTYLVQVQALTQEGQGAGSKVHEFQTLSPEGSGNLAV

target: T1, Human EphA2 (Ecto), C-terminal polyHis (Human, UniProt P29317 24-537); assay: fluorescence polarisation competition; competitor fluorescent Compound 66
T1 construct: extracellular domain; also called EPH receptor A2; ephrin type-A receptor 2

| Binder | Ki |
| --- | --- |
| ADVRTCPWGPFWCPVNRPGCA (3 Cys thioether-linked to TBMB scaffold, also called Compound 60) [Bicycle Compound Number 60 (TBMB scaffold)] | 2.5 nM |
| ACVPQGIWCALRYEPCA (3 Cys thioether-linked to TBMB scaffold, also called Compound 65) [Bicycle Compound Number 65 (TBMB scaffold)] | 293 nM |

Results, then the binder that gave them:

| Ki | Binder |
| --- | --- |
| 356 nM | CMNDWLCSAGWTC (N-terminal Ac; 3 Cys thioether-linked to TBMB scaffold, also called Compound 27) [Bicycle Compound Number 27 (TBMB scaffold)] |
| 328 nM | CANDWLCSLGWTC (N-terminal Ac; 3 Cys thioether-linked to TBMB scaffold, also called Compound 25) [Bicycle Compound Number 25 (TBMB scaffold)] |
| 71.6 nM | CMNDWLCALGWTC (N-terminal Ac; 3 Cys thioether-linked to TBMB scaffold, also called Compound 26) [Bicycle Compound Number 26 (TBMB scaffold)] |
| 168 nM | ACPWGPAWCPVNRNGCA (3 Cys thioether-linked to TBMB scaffold, also called Compound 52) [Bicycle Compound Number 52 (TBMB scaffold)] |

target: T1, Human EphA2 (Ecto), C-terminal polyHis; assay: fluorescence polarisation competition; competitor fluorescent Compound 18

| Ki | Binder |
| --- | --- |
| 12.6 nM | ADVRTCPWGPFWCPVNRPGCA (3 Cys thioether-linked to TBMB scaffold, also called Compound 60) [Bicycle Compound Number 60 (TBMB scaffold)] |
| 16.1 nM | ARDDPCPWGPFWCPVNRPGCA (3 Cys thioether-linked to TBMB scaffold, also called Compound 62) [Bicycle Compound Number 62 (TBMB scaffold)] |

| Binder | Ki |
| --- | --- |
| ADHACPWGPFWCPVNRPGCA (3 Cys thioether-linked to TBMB scaffold, also called Compound 56) [Bicycle Compound Number 56 (TBMB scaffold)] | 14.4 nM |

target: T1, Human EphA2 (Ecto), C-terminal polyHis; assay: fluorescence polarisation competition; competitor fluorescent Compound 12

| Binder | Ki |
| --- | --- |
| ACPWGPAWCPVNRPGCA (3 Cys thioether-linked to TBMB scaffold, also called Compound 44) [Bicycle Compound Number 44 (TBMB scaffold)] | 128 nM |

target: T2, Human EphA2 (Ecto) (Human, UniProt P29317 24-537); assay: FP competition, tracer Compound 66
T2 construct: extracellular domain

| Ki | Binder |
| --- | --- |
| 356 nM | CMNDWLCSAGWTC (Ac-CMNDWLCSAGWTC; 3 Cys on TBMB) [Bicycle Compound 27] |
| 71.6 nM | CMNDWLCALGWTC (Ac-CMNDWLCALGWTC; 3 Cys on TBMB) [Bicycle Compound 26] |
| 328 nM | CANDWLCSLGWTC (Ac-CANDWLCSLGWTC; 3 Cys on TBMB) [Bicycle Compound 25] |

target: T3, Human EphA2 (Ecto) (Human, UniProt P29317 24-537); assay: FP competition; tracer Reference Compound C
T3 construct: extracellular domain; in-house)

| Ki | Binder |
| --- | --- |
| 11.9 nM | ACPMVNPLCLHPGWKCA (3 Cys thioether-linked to TATA scaffold) [Bicycle Compound Number 95 (TATA scaffold), ACPMVNPLCLHPGWKCA] |
| 16.1 nM | ACPMVNPLCLTPGWICA (3 Cys thioether-linked to TATA scaffold) [Bicycle Compound Number 96 (TATA scaffold), ACPMVNPLCLTPGWICA] |
| 168 nM | GQVCIVDARCAYMNVCA (3 Cys thioether-linked to TATA scaffold) [Bicycle Compound Number 24 (TATA scaffold), GQVCIVDARCAYMNVCA] |
| 294 nM | ACRVYGPYCAYPDTICA (3 Cys thioether-linked to TATA scaffold) [Bicycle Compound Number 37 (TATA scaffold), ACRVYGPYCAYPDTICA] |
| 293 nM | ACQPSNHCAFMNYCA (3 Cys thioether-linked to TATA scaffold) [Bicycle Compound Number 30 (TATA scaffold), ACQPSNHCAFMNYCA] |
| 128 nM | ACGFMGLEPCELYCA (3 Cys thioether-linked to TATA scaffold) [Bicycle Compound Number 48 (TATA scaffold), ACGFMGLEPCELYCA] |
| 11.9 nM | KHSCPLVNPLCLHPGWTCA (3 Cys thioether-linked to TATA scaffold) [Bicycle Compound Number 72 (TATA scaffold), KHSCPLVNPLCLHPGWTCA] |
| 1.98 nM | ACPLVNPLCLHPGWTCLHG (3 Cys thioether-linked to TATA scaffold) [Bicycle Compound Number 73 (TATA scaffold), ACPLVNPLCLHPGWTCLHG] |

target: T1, Human EphA2 (Ecto), C-terminal polyHis; assay: fluorescence polarisation competition; competitor fluorescent Compound 1

| Binder | Ki |
| --- | --- |
| ACPWGPAWCPVNRPGCA (3 Cys thioether-linked to TBMB scaffold, also called Compound 44) [Bicycle Compound Number 44 (TBMB scaffold)] | 164 nM |
